# According to PubChem BioAssay AID580 (SRMLSC, 2007):
# The entries are a selection whose mix differs from that of the whole data set. The source made the active and inactive calls.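 Rule for the calls: active = viability at or under a set limit in both replicates, limit being median viability minus 3 SD (cut at about 48% in these data, passing the limit was not always enough); inconclusive = at or under the limit in just one replicate; inactive = at or above the limit in both replicates.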
# Assay: H69AR cell proliferation blockers – human, duplicate replicates, primary screen (AID 580);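 note: 100% = mean luminescence of untreated wells and 0% = no signal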
# Conditions: H69AR lung tumor cells viability, ATP luminescence, 72 h; at 10 µM; hits give low values
row,SMILES,viability
1,O=C(COc1ccccc1)OC1CN2CCC1CC2 (stereo not given),inactive: 105%
2,COP1(=S)c2c(C)nn(CCC#N)c2N=C(c2ccc(F)cc2)N1C (stereo not given),inactive: 78.2%
3,CCOP1(=S)c2c(C)nn(CCC#N)c2N=C(c2ccccc2F)N1C (stereo not given),inactive: 79.3%
4,Cc1nn(-c2ccccc2)c2c1P(=O)(N1CCOCC1)N(C)C(c1ccccc1)=N2 (stereo not given),inactive: 89.8%
5,O=P(Nc1nccs1)(c1ccccc1)c1ccccc1,inactive: 103%
